This data set in a line: Chemical half-life in percholate at 37 degree was determined. In kind it is ADME.

The results in this text go back to ChEMBL document CHEMBL1127591, “Novel prodrugs of alkylating agents derived from 2-fluoro- and 3-fluorobenzoic acids for antibody-directed enzyme prodrug therapy” (J Med Chem, 1994).

As to `O=C(O)c1ccc(N(CCCl)CCCl)c(F)c1`, the T1/2 was determined as 1.2 h.
As for `O=C(O)c1ccc(N(CCCl)CCCl)cc1F`, the T1/2 was determined as 20.7 h.
The compound `O=C(O)c1ccc(N(CCCl)CCCl)cc1` registered a T1/2 of 5.4 h.
